# From US20260193285A1, “GRAMINE-PLATINUM (IV) COMPLEX AS WELL AS PREPARATION METHOD THEREFOR AND ANTI-TUMOR USE THEREOF” (TIANJIN MEDICAL UNIVERSITY CANCER INSTITUTE & HOSPITAL, priority 2022, published 2026)
# Test system: KPC tumor model
# Experiment: In vivo anti-tumor activity, pancreatic cancer KPC model
# Details: Pt 3.0 mg/kg
# Description: Firstly, a KPC tumor model was established using C57BL/6 female mice 4-5 weeks old. […] The drugs were formulated at a Pt concentration of 3.0 mg/kg, once every 3 days and five times in total, while the body weight and tumor volume of the mice were measured every 3 days. The mice were sacrificed and the organs (heart, liver, spleen, lung, kidney) and tumors thereof were excised. The tumors were used for flow cytometry to determine the content of immune cells.
smiles,measurement,value
"O=C1[O][Pt]2([NH][C@@H]3CCCC[C@H]3[NH]2)[O]C1=O [OXP, oxaliplatin]",body weight change of mice,decline all the time
